# Assay results taken from patent US10072025B2, “Ethyl N-boc piperidinyl pyrazolo pyridones as Janus kinase inhibitors” (Merck Sharp & Dohme Corp., priority 2014, dated 2018).
# Chains of the proteins cited; added tags and fusions are not shown. Residues count along the entry.
# UniProt O60674, 849-1124: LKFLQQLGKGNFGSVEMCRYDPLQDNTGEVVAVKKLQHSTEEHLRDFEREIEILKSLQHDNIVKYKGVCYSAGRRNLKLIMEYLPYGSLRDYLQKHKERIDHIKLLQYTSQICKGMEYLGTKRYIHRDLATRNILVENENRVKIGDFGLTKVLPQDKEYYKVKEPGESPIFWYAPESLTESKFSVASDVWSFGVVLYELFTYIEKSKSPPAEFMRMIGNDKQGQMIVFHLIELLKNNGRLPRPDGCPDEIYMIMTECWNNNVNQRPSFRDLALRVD
# UniProt P23458, 875-1153: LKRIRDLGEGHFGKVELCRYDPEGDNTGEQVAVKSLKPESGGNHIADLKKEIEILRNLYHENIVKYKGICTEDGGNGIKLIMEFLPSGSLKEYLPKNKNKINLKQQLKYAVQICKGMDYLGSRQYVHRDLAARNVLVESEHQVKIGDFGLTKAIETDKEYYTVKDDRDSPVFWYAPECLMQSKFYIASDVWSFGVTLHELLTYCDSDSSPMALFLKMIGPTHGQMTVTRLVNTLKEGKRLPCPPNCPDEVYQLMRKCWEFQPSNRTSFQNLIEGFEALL
# Like-named read-outs stand apart in the source and are kept apart here.
# Columns and labels:
# JAK2 = JAK2 (Homo sapiens (Human), UniProt O60674); experiment: Jak Biochemical HTRF Assay (JAK2)
# Experimental: (§1) Jak Biochemical HTRF Assay Protocol
# (§2) The ability of compounds to inhibit the activity of JAK1, JAK2, JAK3, and Tyk2 was measured using a recombinant purified GST-tagged catalytic domain for each enzyme (Invitrogen JAK1 #M4290, JAK2 #M4290, JAK3 #M4290, Tyk2 #M4290) in an HTRF format biochemical assay. […] The basic assay protocol is as follows: First, 250 nL of diluted compounds in DMSO were dispensed into the wells of a dry 384-well Black plate (Greiner #781076) using a Labcyte Echo 555 acoustic dispenser. Subsequent reagent additions employed an Agilent Bravo. Next, 18 μL of 1.11× enzyme and 1.11× substrate in 1× assay buffer (Invitrogen kinase buffer # PV3189, 2 mM DTT, 0.05% BSA) were added to the wells and shaken and then preincubated for 30 minutes at room temperature to allow compound binding to equilibrate. After equilibration, 2 μL of 10×ATP in 1× assay buffer was added to initiate the kinase reaction and the plates were shaken and then incubated at room temperature for 120 minutes. At the end of the incubation, 20 μL of 2× stop buffer (streptavidin-Dylight 650 (Thermo #84547B/100 mL), Eu-tagged pY20 antibody (Perkin Elmer #AD0067), EDTA, HEPES, and Triton) was added to quench the reaction. Plates were shaken and centrifuged and then incubated 60 minutes at room temperature and then read on a Perkin Elmer Envision (Xex=337 nm, λem=665 and 615 nm, TRF delay time=20 μs). HTRF signal=10,000*665 nm reading/615 nm reading. After normalization to untreated controls, the percent inhibition of the HTRF signal at each compound concentration was calculated. The plot of percent inhibition versus the log of compound concentration was fit with a 4-parameter dose response equation to calculate IC50 values.
# JAK1 = JAK1 (Homo sapiens (Human), UniProt P23458); experiment: Jak Biochemical HTRF Assay (JAK1); details: recombinant purified GST-tagged catalytic domain, [ATP] 31.8 μM, [E] 1.405 nM
# Experimental: as §1, §2
# [1] = recombinant purified GST-tagged catalytic domain, HTRF, [ATP] 8.5 μM, [E] 0.052 nM
IC50 (JAK2; [1]) [nM],IC50 (JAK1) [nM],Structure (SMILES),IC50 (JAK2) [nM]
10.1,8.85,"CCC1(n2nc(Nc3ccc([C@]4(C(F)(F)F)CCCCCN4)cc3)c3c(=O)[nH]ccc32)CCN(C(=O)OC(C)(C)C)CC1 (single isomer, unassigned) [Example 2-16, (S or R)-tert-butyl-4-ethyl-4-(4-oxo-3-((4-(2-(trifluoromethyl)azepan-2-yl)phenyl)amino)-4,5-dihydro-1H-pyrazolo[4,3-c]pyridin-1-yl) piperidine-1-carboxylate]",
2.78,,"CCC1(n2nc(Nc3ccc(S(=O)(=O)N4CCC[C@@H]4C)cc3)c3c(=O)[nH]ccc32)CCN(C(=O)OC(C)(C)C)CC1 (single isomer, unassigned) [Example 2-38, (S or R)-tert-butyl 4-ethyl-4-(3-(4-(2-methylpyrrolidin-1-ylsulfonyl)phenylamino)-4-oxo-4,5-dihydropyrazolo[4,3-c]pyridin-1-yl) piperidine-1-carboxylate]",
7.69,6.59,"CCC1(n2nc(Nc3ccc([C@H](NC(C)(C)C)C(F)(F)F)cc3)c3c(=O)[nH]ccc32)CCN(C(=O)OC(C)(C)C)CC1 (single isomer, unassigned) [Example 2-37, (S or R)-tert-butyl 4-(3-(4-(1-(tert-butylamino)-2,2,2-trifluoroethyl)phenylamino)-4-oxo-4,5-dihydropyrazolo [4,3-c]pyridin-1-yl)-4-ethylpiperidine-1-carboxylate]",
2.1,3.53,"CCC1(n2nc(Nc3ccc(C(=O)N4CCOC(C)C4C)c(C)c3)c3c(=O)[nH]ccc32)CCN(C(=O)OC(C)(C)C)CC1 (single isomer, unassigned) [Example 3-15, tert-butyl 4-[3-({4-[(2,3-dimethylmorpholin-4-yl)carbonyl]-3-methylphenyl}amino)-4-oxo-4,5-dihydro-1H-pyrazolo[4,3-c]pyridin-1-yl]-4-ethylpiperidine-1-carboxylate]",
16.9,13.9,"CCC1(n2nc(Nc3ccc([C@@]4(C(F)(F)F)CCCCCN4)cc3)c3c(=O)[nH]ccc32)CCN(C(=O)OC(C)(C)C)CC1 (single isomer, unassigned) [Example 2-10, (R or S)-tert-butyl 4-ethyl-4-(4-oxo-3-((4-(2-(trifluoromethyl)azepan-2-yl)phenyl)amino)-4,5-dihydro-1H-pyrazolo[4,3-c]pyridin-1-yl) piperidine-1-carboxylate]",
2.7,2.74,"CCC1(n2nc(Nc3ccc([C@@]4(C(F)(F)F)CCCCN4)cc3)c3c(=O)[nH]ccc32)CCN(C(=O)OC(C)(C)C)CC1 (single isomer, unassigned) [Example 2-31, (R or S)-tert-butyl 4-ethyl-4-(4-oxo-3-((4-(2-(trifluoromethyl)piperidin-2-yl)phenyl)amino)-4,5-dihydro-1H-pyrazolo[4,3-c]pyridin-1-yl) piperidine-1-carboxylate]",
2.79,,"CCC1(n2nc(Nc3ccc(S(=O)(=O)N4CCC[C@H]4C)cc3)c3c(=O)[nH]ccc32)CCN(C(=O)OC(C)(C)C)CC1 (single isomer, unassigned) [Example 2-39, (R or S)-tert-butyl 4-ethyl-4-(3-(4-(2-methylpyrrolidin-1-ylsulfonyl)phenylamino)-4-oxo-4,5-dihydropyrazolo[4,3-c]pyridin-1-yl) piperidine-1-carboxylate]",
2.21,2.19,"CCC1(n2nc(Nc3ccc([C@]4(C(F)(F)F)CCCCN4)cc3)c3c(=O)[nH]ccc32)CCN(C(=O)OC(C)(C)C)CC1 (single isomer, unassigned) [Example 2-32, (S or R)-tert-butyl 4-ethyl-4-(4-oxo-3-((4-(2-(trifluoromethyl)piperidin-2-yl)phenyl)amino)-4,5-dihydro-1H-pyrazolo[4,3-c]pyridin-1-yl) piperidine-1-carboxylate]",

# Further lines, the compound ahead of its results:
Structure (SMILES),IC50 (JAK2; [1]) [nM],IC50 (JAK1) [nM],IC50 (JAK2) [nM]
"CCC1(n2nc(Nc3ccc(C(=O)N4CCOC(C)C4C)c(C)c3)c3c(=O)[nH]ccc32)CCN(C(=O)OC(C)(C)C)CC1 (single isomer, unassigned) [Example 3-14, tert-butyl 4-[3-({4-[(2,3-dimethylmorpholin-4-yl)carbonyl]-3-methylphenyl}amino)-4-oxo-4,5-dihydro-1H-pyrazolo[4,3-c]pyridin-1-yl]-4-ethylpiperidine-1-carboxylate]",1.76,2.88,
"CCC1(n2nc(Nc3ccc(C(=O)N4CCCOC(C)C4)c(C)c3)c3c(=O)[nH]ccc32)CCN(C(=O)OC(C)(C)C)CC1 (single isomer, unassigned) [Example 3-22, tert-butyl 4-ethyl-4-[3-({3R or 3S-methyl-4-[(2-methyl-1,4-oxazepan-4-yl)carbonyl]phenyl}amino)-4-oxo-4,5-dihydro-1H-pyrazolo [4,3-c]pyridin-1-yl] piperidine-1-carboxylate]",,1.3,
"CCC1(n2nc(Nc3ccc(C(=O)N4[C@H](C)COC[C@H]4C)c(C)c3)c3c(=O)[nH]ccc32)CCN(C(=O)OC(C)(C)C)CC1 (single isomer, unassigned) [Example 2-20, tert-butyl 4-(3-(4-((3R,5R or 3S,5S)-3,5-dimethylmorpholine-4-carbonyl)-3-methylphenylamino)-4-oxo-4,5-dihydropyrazolo[4,3-c]pyridin-1-yl)-4-ethylpiperidine-1-carboxylate]",0.84,,
"CCC1(n2nc(Nc3ccc(C(=O)N4[C@H](C)COC[C@@H]4C)c(C)c3)c3c(=O)[nH]ccc32)CCN(C(=O)OC(C)(C)C)CC1 [Example 2-18, tert-butyl 4-(3-(4-((3S,5R)-3,5-dimethylmorpholine-4-carbonyl)-3-methylphenylamino)-4-oxo-2,3,4,5-tetrahydropyrazolo[4,3-c]pyridin-1-yl)-4-ethylpiperidine-1-carboxylate]",,,0.57
"CCC1(n2nc(Nc3ccc([C@@H](NC(C)(C)C)C(F)(F)F)cc3)c3c(=O)[nH]ccc32)CCN(C(=O)OC(C)(C)C)CC1 (single isomer, unassigned) [Example 2-36, (R or S)-tert-butyl 4-(3-(4-(1-(tert-butylamino)-2,2,2-trifluoroethyl)phenyl-amino)-4-oxo-4,5-dihydropyrazolo[4,3-c]pyridin-1-yl)-4-ethylpiperidine-1-carboxylate]",13,8.43,
"CCC1(n2nc(Nc3ccc(C(=O)N4CCOC(C)C4C)c(C)c3)c3c(=O)[nH]ccc32)CCN(C(=O)OC(C)(C)C)CC1 (single isomer, unassigned) [Example 3-13, tert-butyl 4-[3-({4-[(2,3-dimethylmorpholin-4-yl)carbonyl]-3-methylphenyl}amino)-4-oxo-4,5-dihydro-1H-pyrazolo[4,3-c]pyridin-1-yl]-4-ethylpiperidine-1-carboxylate]",1.04,1.8,
"CCC1(n2nc(Nc3ccc(C(=O)N4CCOC(C)C4C)c(C)c3)c3c(=O)[nH]ccc32)CCN(C(=O)OC(C)(C)C)CC1 (single isomer, unassigned) [Example 3-16, tert-butyl 4-[3-({4-[(2,3-dimethylmorpholin-4-yl)carbonyl]-3-methylphenyl}amino)-4-oxo-4,5-dihydro-1H-pyrazolo[4,3-c]pyridin-1-yl]-4-ethylpiperidine-1-carboxylate]",1.07,1.87,
"CCC1(n2nc(Nc3ccc(C(=O)N4CCCOC(C)C4)c(C)c3)c3c(=O)[nH]ccc32)CCN(C(=O)OC(C)(C)C)CC1 (single isomer, unassigned) [Example 3-23, tert-butyl 4-ethyl-4-[3-({3R or 3S-methyl-4-[(2-methyl-1,4-oxazepan-4-yl)carbonyl]phenyl}amino)-4-oxo-4,5-dihydro-1H-pyrazolo [4,3-c]pyridin-1-yl] piperidine-1-carboxylate]",,1.14,
"CCC1(n2nc(Nc3ccc(C(=O)N4[C@@H](C)COC[C@@H]4C)c(C)c3)c3c(=O)[nH]ccc32)CCN(C(=O)OC(C)(C)C)CC1 (single isomer, unassigned) [Example 2-19, tert-butyl 4-(3-(4-((3S,5S or 3R,5R)-3,5-dimethylmorpholine-4-carbonyl)-3-methylphenylamino)-4-oxo-4,5-dihydropyrazolo[4,3-c]pyridin-1-yl)-4-ethylpiperidine-1-carboxylate]",0.65,,
